From patent publication US10137210B2, “Thioflavin derivatives for use in antemortem diagnosis of Alzheimer's disease and in vivo imaging and prevention of amyloid deposition” (UNIVERSITY OF PITTSBURGH—OF THE COMMONWEALTH SYSTEM OF …, priority 2000, dated 2018) come the findings set out here.

Series [1] deals with plaques and cerebrovascular amyloid. The experiment in a line: Autoradiography of [I-125]6-OH-BTA-0-3′-I on fresh frozen post-mortem AD brain versus X-34 stain. The series is classed as binding, human. An excerpt:
Left: autoradiogram of [I-125]6-OH-BTA-0-3′-I binding to fresh frozen tissue from post-mortem AD brain. The dark areas show the localization of [I-125]6-OH-BTA-0-3′-I and are outlined in red. The structure of [I-125]6-OH-BTA-0-3′-I is shown in the lower left. Right: The same piece of post-mortem AD brain tissue stained with the amyloid dye, X-34. Bright areas indicate plaques and cerebrovascular amyloid. […] Bar represents 1000 μm.

Series [2] can be described thus: In vivo brain uptake and retention in mice. On the set-up: species or system mouse. Conditions: Table 1 lower part. An excerpt: In Table 1 below are five different ^11C-labeled BTA derivatives where their in vitro binding properties, log P values, and in vivo brain uptake and retention properties in mice have been determined.

Molecules are shown by their SMILES.

On to `Nc1ccc(-c2nc3ccc(O)cc3s2)cc1[125I]` [[I-125]6-OH-BTA-0-3′-I, 2-(3′-Iodo-4′-aminophenyl)-6-hydroxybenzathiazole], for which the “correspondence of binding to plaques and cerebrovascular amyloid stained by X-34” value in series [1] is “nearly 1:1 correspondence”.

For the compound `Nc1ccc(-c2nc3ccc(O)cc3s2)cc1[125I]` [drawing 25], in series [2], the “2:30 min ratio” value is given as 15.7.
